# Experimental data taken from PubChem BioAssay (NCI).
# Only a part is listed here, and it is no random draw. Some structures have more than one record in an assay (separate samples or runs), and their calls can disagree. The source made the active and inactive calls. No stated cut-off is given here; in the data, active means growth inhibition above about 70%; inactive means the rest.
# How the values were obtained:
# [1] = NCI Yeast Anticancer Drug Screen. Data for the rad50 strain (AID 155);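 further: 0% = growth of vehicle-only cultures of the same strain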; conditions: S. cerevisiae rad50 strain growth inhibition, stronger effect = higher value
# [2] = NCI Yeast Anticancer Drug Screen. Data for the mec2-1 strain (AID 157); conditions: S. cerevisiae mec2-1 strain, stronger effect = higher value
# [3] = NCI Yeast Anticancer Drug Screen. Data for the sgs1 mgt1 strain (AID 161);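 further: 0% = growth of cultures given vehicle only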; conditions: S. cerevisiae sgs1 mgt1 strain, stronger effect = higher value
# [4] = NCI Yeast Anticancer Drug Screen. Data for the cln2 rad14 strain (AID 165);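 further: 0% = growth equal to vehicle treated cultures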; conditions: S. cerevisiae cln2 rad14 strain, stronger effect = higher value
# [5] = NCI Yeast Anticancer Drug Screen. Data for the bub3 strain (AID 167); conditions: S. cerevisiae bub3 mutant strain, stronger effect = higher value
# [6] = NCI Yeast Anticancer Drug Screen. Data for the mlh1 rad18 strain (AID 175); conditions: S. cerevisiae mlh1 rad18 strain growth inhibition, stronger effect = higher value
# [7] = at 5.0 µM (retest, dose inferred, filed as 0.5)
# [8] = at 50.0 µM (retest, dose inferred, filed as 5.0)
compound,measurement,setting,value
O=C1C(SCCCl)=C(SCCCl)C(=O)c2[nH]cnc21,growth inhibition,[1]; [7],active: 98%
same,growth inhibition,[1]; [8],active: 96%
same,growth inhibition,[1]; at 50.0 µM,active: 93.5%
same,growth inhibition,[2]; [7],active: 98%
same,growth inhibition,[2]; [8],active: 97%
same,growth inhibition,[2]; at 50.0 µM,active: 94.7%
same,growth inhibition,[3]; [7],active: 98%
same,growth inhibition,[3]; [8],active: 98%
same,growth inhibition,[3]; at 50.0 µM,active: 92.3%
same,growth inhibition,[4]; [7],active: 96%
same,growth inhibition,[4]; [8],active: 97%
same,growth inhibition,[4]; at 50.0 µM,active: 93.5%
same,growth inhibition,[5]; [7],active: 77%
same,growth inhibition,[5]; [8],active: 97%
same,growth inhibition,[5]; at 50.0 µM,active: 78.2%
same,growth inhibition,[6]; [7],active: 98%
same,growth inhibition,[6]; [8],active: 97%
same,growth inhibition,[6]; at 50.0 µM,active: 94%
CN(C)c1ccc(N(CCCl)CCCl)cc1,growth inhibition,[1]; at 50.0 µM,inactive: 23.1%
same,growth inhibition,[2]; at 50.0 µM,inactive: 3.25%
same,growth inhibition,[3]; at 50.0 µM,inactive: 7.1%
same,growth inhibition,[4]; at 50.0 µM,inactive: 33.7%
same,growth inhibition,[5]; at 50.0 µM,inactive: 25.9%
same,growth inhibition,[6]; at 50.0 µM,inactive: -18.5%
NNP(=S)(NN)c1ccccc1,growth inhibition,[1]; [7],inactive: 0%
same,growth inhibition,[1]; [8],inactive: 1%
same,growth inhibition,[1]; at 50.0 µM,inactive: 0.9%
same,growth inhibition,[2]; [7],inactive: 0%
same,growth inhibition,[2]; [8],inactive: -20%
same,growth inhibition,[2]; at 50.0 µM,inactive: -11.4%
same,growth inhibition,[3]; [7],inactive: -1%
same,growth inhibition,[3]; [8],inactive: -2%
same,growth inhibition,[3]; at 50.0 µM,inactive: 42.7%
same,growth inhibition,[4]; [7],inactive: -1%
same,growth inhibition,[4]; [8],inactive: -2%
same,growth inhibition,[4]; at 50.0 µM,inactive: -18.2%
same,growth inhibition,[5]; [7],inactive: 2%
same,growth inhibition,[5]; [8],inactive: 2%
same,growth inhibition,[5]; at 50.0 µM,inactive: -4.45%
same,growth inhibition,[6]; [7],inactive: -3%
same,growth inhibition,[6]; [8],inactive: -2%
same,growth inhibition,[6]; at 50.0 µM,inactive: 6.15%
Oc1c(CN(CCCl)CCCl)cc(Cl)c2cccnc12,growth inhibition,[1]; at 50.0 µM,active: 98.5%
same,growth inhibition,[2]; at 50.0 µM,active: 98.7%
same,growth inhibition,[3]; at 50.0 µM,active: 98.6%
same,growth inhibition,[4]; at 50.0 µM,active: 97.9%
same,growth inhibition,[5]; at 50.0 µM,active: 98.6%
same,growth inhibition,[6]; at 50.0 µM,active: 98.4%
N#CC1(Nc2ccccc2)CCN(Cc2ccccc2)CC1,growth inhibition,[1]; at 50.0 µM,inactive: -10.5%
same,growth inhibition,[2]; at 50.0 µM,inactive: -1.65%
same,growth inhibition,[3]; at 50.0 µM,inactive: 1.35%
same,growth inhibition,[4]; at 50.0 µM,inactive: 9.45%
same,growth inhibition,[5]; at 50.0 µM,inactive: -3.35%
same,growth inhibition,[6]; at 50.0 µM,inactive: 3.5%
O=Cc1ccc(N(CCCl)CCCl)cc1,growth inhibition,[1]; [7],inactive: 13%
same,growth inhibition,[1]; [8],inactive: 47%
same,growth inhibition,[1]; at 50.0 µM,active: 81%
same,growth inhibition,[2]; [7],inactive: 5%
same,growth inhibition,[2]; [8],inactive: 18%
same,growth inhibition,[2]; at 50.0 µM,inactive: 47.8%
same,growth inhibition,[3]; [7],inactive: 7%
same,growth inhibition,[3]; [8],inactive: 28%
same,growth inhibition,[3]; at 50.0 µM,inactive: 37.1%
same,growth inhibition,[4]; [7],inactive: 3%
same,growth inhibition,[4]; [8],inactive: 54%
same,growth inhibition,[4]; at 50.0 µM,active: 81.2%
same,growth inhibition,[5]; [7],inactive: 3%
same,growth inhibition,[5]; [8],inactive: 3%
same,growth inhibition,[5]; at 50.0 µM,inactive: 18.2%
same,growth inhibition,[6]; [7],inactive: 15%
same,growth inhibition,[6]; [8],inactive: 57%
same,growth inhibition,[6]; at 50.0 µM,inactive: 48.2%
COc1ccc([N+](=O)[O-])c(C[N+](C)(CCCl)CCCl)c1,growth inhibition,[1]; at 1.2 µM,inactive: -20%
same,growth inhibition,[1]; at 3.7 µM,inactive: -13%
same,growth inhibition,[1]; [7],inactive: 15%
same,growth inhibition,[1]; at 11.0 µM,inactive: 8%
same,growth inhibition,[1]; at 33.0 µM,active: 73%
same,growth inhibition,[1]; [8],inactive: 62%
same,growth inhibition,[1]; at 50.0 µM,active: 73.6%
same,growth inhibition,[1]; at 100.0 µM,active: 92%
same,growth inhibition,[2]; at 1.2 µM,inactive: -7%
same,growth inhibition,[2]; at 3.7 µM,inactive: 5%
same,growth inhibition,[2]; [7],inactive: -14%
same,growth inhibition,[2]; at 11.0 µM,inactive: 4%
same,growth inhibition,[2]; at 33.0 µM,inactive: 22%
same,growth inhibition,[2]; [8],inactive: 19%
same,growth inhibition,[2]; at 50.0 µM,inactive: 21.9%
same,growth inhibition,[2]; at 100.0 µM,active: 78%
same,growth inhibition,[3]; [7],inactive: -1%
same,growth inhibition,[3]; [8],inactive: 10%
same,growth inhibition,[3]; at 50.0 µM,inactive: 31.6%
same,growth inhibition,[4]; [7],inactive: -3%
same,growth inhibition,[4]; [8],inactive: 47%
same,growth inhibition,[4]; at 50.0 µM,inactive: 38.9%
same,growth inhibition,[5]; at 1.2 µM,inactive: -33%
same,growth inhibition,[5]; at 3.7 µM,inactive: -47%
same,growth inhibition,[5]; [7],inactive: -5%
same,growth inhibition,[5]; at 11.0 µM,inactive: -35%
same,growth inhibition,[5]; at 33.0 µM,inactive: -37%
same,growth inhibition,[5]; [8],inactive: -8%
same,growth inhibition,[5]; at 50.0 µM,inactive: -3.6%
same,growth inhibition,[5]; at 100.0 µM,inactive: -6%
same,growth inhibition,[6]; [7],inactive: 14%
same,growth inhibition,[6]; [8],active: 71%
same,growth inhibition,[6]; at 50.0 µM,inactive: 67.7%
CCN(CC)Cc1cccc(N(CCCl)CCCl)c1,growth inhibition,[1]; [7],active: 91%
same,growth inhibition,[1]; [8],active: 99%
same,growth inhibition,[1]; at 50.0 µM,inactive: 56.4%
same,growth inhibition,[2]; [7],active: 71%
same,growth inhibition,[2]; [8],active: 99%
same,growth inhibition,[2]; at 50.0 µM,inactive: 26.2%
same,growth inhibition,[3]; [7],active: 89%
same,growth inhibition,[3]; [8],active: 99%
same,growth inhibition,[3]; at 50.0 µM,active: 71.2%
same,growth inhibition,[4]; [7],active: 73%
same,growth inhibition,[4]; [8],active: 92%
same,growth inhibition,[4]; at 50.0 µM,inactive: 48.4%
same,growth inhibition,[5]; [7],active: 85%
same,growth inhibition,[5]; [8],active: 95%
same,growth inhibition,[5]; at 50.0 µM,inactive: 66.8%
same,growth inhibition,[6]; [7],active: 76%
same,growth inhibition,[6]; [8],active: 98%
same,growth inhibition,[6]; at 50.0 µM,inactive: 69.8%
